According to patent publication US12053522B2, “Pro-inflammatory and anti-cancer functions of toll-like receptor 4 antagonists” (Children's Medical Center Corporation, priority 2015, dated 2024):

System: bone marrow derived DCs
Assay: IL-1β release from DCs (ELISA)
Type: cell-based, mouse
Conditions: LPS-primed, oxPAPC-treated
Procedure: NLRP3 KO and ASC KO mice were kindly provided by Dr. T. Horng, Harvard School of Public Health. Caspase-11 KO mice were kindly provided by Dr. Junying Yuan, Harvard Medical School. Caspase-1 single KO mice were kindly provided by Thirumala-Devi Kanneganti (St. Judes). DCs were differentiated from bone marrow in IMDM (Gibco), 10% B16-GM-CSF derived supernatant, 2 μM 2-mercaptoethanol and 10% FBS and used after 6 day of culture. […] MO were differentiated from bone marrow in DMEM (Gibco), 30% L929 supernatant, and 10% FBS. Immortal MΦs were cultured in DMEM supplemented with 10% L929 supernatant and 10% FBS. […]
RNA was isolated from cell cultures using Qiashedder (Qiagen) and GeneJET RNA Purification Kit (Life Technologies). Purified RNA was analyzed for gene expression on a CFX384 real time cycler (Bio-rad) using TaqMan RNA-to-CT 1-Step Kit (Applied Biosystems) with probes purchased from Life Technologies specific for viperin (Mm00491265_m1), IFNb1 (Mm00439552_s1), IL6 (Mm00446190_m1), caspase-1 (Mm00438023_m1), caspase-11 (Mm00432307_m1), Nlrp3 (Mm00840904_m1), Asc (Mm00445747_g1), TBP (Mm00446971_m1) or GAPDH (Mm99999915_g1). ELISA for IL-1β, IL-2, IL-17, IL-18, TNFα and IFNγ were performed using Mouse Ready-SET-Go ELISA kits (eBioscience). […] Cell associated cytokines were measured as follows: 96-well plates were centrifuged and supernatant was discarded. […]

B1: recombinant IFNβ: Recombinant IFNβ from R&D Systems (protein, UniProt P01574 22-187, looked up)
Interferon beta: MSYNLLGFLQRSSNFQCQKLLWQLNGRLEYCLKDRMNFDIPEEIKQLQQFQKEDAALTIYEMLQNIFAIFRQDSSSTGWNETIVENLLANVYHQINHLKTVLEEKLEKEDFTRGKLMSSLHLKRYYGRILHYLKAKEYSHCAWTIVRVEILRNFYFINRLTGYLRN
- rescue of defect in IL-1β secretion in CD14 KO cells: could not be rescued
